Measured values from PubChem BioAssay (NCATS).
“And” between values parts separate entries of the source, which are not always exact repeats. Identical values can stand only once. Only a part is listed here, and it is no random draw. Records with an inconclusive call do not appear. For part of these data: Measured potencies and affinities stand elsewhere. The source made the active and inactive calls.

Experiments:
[1] = qHTS assay for measurement of the activity of small molecule inhibitors on Zika virus induced Caspase-3 activity in human iPSC derived neural progenitor cells (hNPCs) (AID 1224857); conditions: hNPCs ZIKV-induced caspase-3/7, Caspase-Glo luminescence, 6 h; at 92.8 µM (top of the series) unless noted; also: % of control where 0% means no effect; nearly all actives have a fitted effect of over 65% in size
Procedure, shortened: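 Zika virus (2 FFU/cell) infection of human iPSC-derived NPCs, 6 h, following 1 h compound preincubation. Read-out: Caspase-Glo 3/7 luminescence.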

[2] = qHTS assay for measurement of the activity of small molecule inhibitors on Zika virus induced Caspase-3 activity in human astrocytoma cells (AID 1224859); conditions: SNB-19 ZIKV-induced caspase-3/7, luminescence, 6 h; at 92.8 µM (top of the series) unless noted;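 also: plate controls were ZIKV-infected untreated cells for no effect and uninfected cells for full effect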
Procedure, shortened: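 Caspase activation in ZIKV-infected SNB-19 cells (2 FFU/cell, 6 h) measured by Caspase-Glo 3/7 luminescence after 30 min RT; compound pre-incubated 1 h; normalised to uninfected and infected controls.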

[3] = P-glycoprotein substrates identified in KB-8-5-11 adenocarcinoma cell line, qHTS therapeutic library screen (AID 1346987); conditions: KB-8-5-11 (P-gp overexpressing) viability, CellTiter-Glo, 72 h; at 93.4 µM (top of the series); also: % is scaled to controls: 0 for no effect and ±100 for the full control effect; nearly all actives have a fitted effect of over 65% in size
Procedure, shortened: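 Steps: plate 500 KB-8-5-11 cells/well in DMEM + 10% FCS (colchicine removed); pin compounds in dose-response; incubate 72 h, 37 degree C, 5% CO2; add CellTiter-Glo, 5 min; read luminescence.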

[4] = NS1 protein of Zika virus - qHTS assay to identify small molecule inhibitors in human HEK 293 cells (AID 1347053); conditions: HEK293 ZIKV MR766 infection, NS1 TR-FRET, 24 h; at 92.8 µM (top of the series);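 also: plate controls were infected untreated cells for no effect and uninfected cells for full effect; nearly all actives have a fitted effect of over 55% in size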
Procedure, shortened: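 HEK 293 cells pretreated with compound for 1 h, then infected with ZIKV MR766 (MOI 0.5) for 24 h at 37 C. NS1 detected by TR-FRET with two anti-NS1 antibodies; normalized to uninfected (0%) and infected (100%) wells.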

[5] = qHTS for Inhibitors of the Functional Ribonucleoprotein Complex (vRNP) of Lassa (LASV) Arenavirus: LASV Primary Screen - GLuc reporter signal (AID 1347082; calls by dose curve; tested in HEK293 reporter line; also: % is scaled to controls: 0 for no effect and ±100 for the full control effect; nearly all actives have a fitted effect of over 60% in size); conditions: LASV minigenome vRNP, Gaussia luciferase reporter; at 57.5 µM (top of the series) unless noted
[6] = qHTS for Inhibitors of the Functional Ribonucleoprotein Complex (vRNP) of Lassa (LASV) Arenavirus: Viability assay - alamar blue signal for LASV Primary Screen (AID 1347083; calls by dose curve; tested in HEK293 reporter line; also: % is scaled to controls: 0 for no effect and ±100 for the full control effect; nearly all actives have a fitted effect of over 80% in size); conditions: cell viability, alamar blue fluorescence (LASV minigenome counter-screen); at 57.5 µM (top of the series) unless noted
[7] = qHTS for Inhibitors of the Functional Ribonucleoprotein Complex (vRNP) of Lymphocytic Choriomeningitis Arenaviruses (LCMV): Viability assay - alamar blue signal for LCMV Primary Screen (AID 1347085; calls by dose curve; tested in HEK293 reporter line; also: % is scaled to controls: 0 for no effect and ±100 for the full control effect; nearly all actives have a fitted effect of over 80% in size); conditions: alamar blue viability counter-screen, LCMV vRNP screen cells; at 57.5 µM (top of the series) unless noted
[8] = Ebola virus entry assay, blue channel fluorescence
[9] = Ebola virus entry assay, green channel fluorescence
[10] = Ebola virus entry assay, reporter ratio channel; Channel type: primary
[11] = Ebola virus entry assay, blue channel (ratio component)
[12] = Ebola virus entry assay, green fluorescence channel
[13] = Ebola virus entry assay, ratio channel readout
[14] = Ebola virus entry assay, ratio channel
[15] = Ebola virus entry assay, blue channel fluorescence; remark: listed apart in the source
[16] = Ebola virus entry cell assay, ratio channel
[17] = High-throughput drug toxicity screening in the BPDCN cell line Gen2.2 (AID 1224824; call rule not given here;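 also: cells exposed to compounds for 48 h before reading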); conditions: Gen2.2 BPDCN cells; at 45.8 µM (top of the series)
Procedure, shortened: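 CellTiter-Glo luminescence read after 48 h compound exposure at 37 C defines viability; percent activity set with DMSO as 100% and bortezomib (9.2 uM final) as 0%. 500 exponentially growing cells per well, RPMI plus 10% FBS.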

[18] = High-throughput drug toxicity screening in the BPDCN cell line Cal-1 (AID 1224825; call rule not given here); conditions: Cal-1 BPDCN cell viability, qHTS; at 45.8 µM (top of the series)
Procedure, shortened: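 Exponentially growing Cal-1 cells, 500 per well in phenol red-free RPMI with 10% FBS, were exposed to compounds for 48 h at 37 °C, 5% CO2. Viability was read by CellTiter-Glo luminescence and normalised to DMSO (100%) and 9.2 uM bortezomib (0%).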

[19] = qHTS Screen of the MIPE 4.0 Collection Against Ewings Sarcoma (TC32) (AID 1259256); conditions: TC32 Ewing sarcoma viability, CellTiter-Glo, 48 h; at 45.8 µM (top of the series); also: nearly all actives have a fitted effect of over 45% in size
Procedure, shortened: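 Compound titrations go onto adherent log-phase cells 4 h after seeding, incubate 48 h at 37C, then CellTiter-Glo luminescence reports viability relative to DMSO and cell-free controls.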

[20] = qHTS assay to identify small molecule inhibitors of chordoma cells - UCH-2 (AID 1259356); conditions: UCH-2 chordoma viability, CellTiter-Glo ATP luminescence, 48 h; at 46.1 µM (top of the series); also: % is scaled to controls: 0 for no effect and ±100 for the full control effect
Text: NIH Chemical Genomics Center [NCGC]
Chordoma is a rare and slow growing tumor that can occur anywhere along the spine, from the base of the skull to the tailbone. Current treatment options for chordoma is surgery and radiation therapy for those who are not candidates for surgery. But chordomas tend to return in the same location or surrounding areas of the original tumor after surgery and/or radiation. Chemotherapy can slow down the progression of the tumor. As chordoma is slow growing, the general cytotoxic agents that kill fast growing cells are ineffective, and some patients have been reported to respond to molecularly targeted drugs.
NCATS Pharmaceutical Collection (NPC) containing approximately 3000 clinically approved and investigational drugs were used to screen at 15 concentrations in a chordoma cell lines, UCH-2, to identify small molecule compounds that can inhibit chordoma cell growth.
NCGC Assay Protocol Summary:
Human chordoma cell line UCH-2 was dispensed at 800 per well in 4uL of culture medium into white solid bottom 1536-well plates (Corning Life Sciences, Corning, NY) using a Multidrop Combi (Thermo Scientific, Waltham, MA) dispenser. […] After 30min incubation at room temperature, the luminescence signal was quantified using a ViewLux plate reader (PerkinElmer, Shelton, CT).

CCC(=O)N(c1ccccc1)C1(COC)CCN(CCc2cccs2)CC1
inactive: activity change, negative = inhibition [1] 37.5% | activity change, negative = inhibition [2] 18% | activity change, negative = cytotoxicity [3] -27.9% | activity change, negative = inhibition [4] -14.1% | activity change, negative = inhibition [5] -28.7% [at 115 µM] | activity change, negative = reduced viability [6] -5.78% [at 115 µM] | activity change, negative = lower viability [7] -2.21% [at 115 µM]

CCC(=O)N(c1ccccc1)C1(COC)CCN(CCn2nnn(CC)c2=O)CC1
inactive: outcome [8] | outcome [9] | outcome [10] | outcome [11] | activity change, negative = inhibition [1] 2.27% | activity change, negative = inhibition [2] 2.92% | activity change, negative = inhibition [4] -23.6% | activity change, negative = inhibition [5] 9.23% [at 115 µM] | activity change, negative = reduced viability [6] 7.69% [at 115 µM] | activity change, negative = lower viability [7] 25.8% [at 115 µM]

CN(CCCl)CCCl
30.4%: cell viability, % of control (lower = more cytotoxic) [17]
2.85%: viability (% of control) [18]
inactive: outcome [12] | outcome [13] | outcome [8] | outcome [14] | outcome [9] | outcome [15] | outcome [10] | outcome [11] | outcome [16] | activity change, negative = inhibition [1] 3.38% [at 45.7 µM] and -2.15% [at 45.7 µM] | activity change, negative = inhibition [2] 0.926% [at 45.7 µM] and -18.6% [at 45.7 µM] | viability (percent of control) [19] 26.1% | activity change, negative = inhibition [20] 7.16% | activity change, negative = inhibition [5] -1.29% and 5.06% | activity change, negative = reduced viability [6] 1.66% and 0.918% | activity change, negative = lower viability [7] 8.06% and 21.8%

CCC(=O)N(c1ccccc1)C1CCN(CCc2ccccc2)CC1
inactive: activity change, negative = inhibition [20] -1.66%
